# Bioassay records (PubChem BioAssay)
# Statin myotox sup – suppressors of simvastatin-induced myotoxicity in C2C12 myotubes; ATP luminescence, 48 h; scaled: DMSO 0, geranylgeraniol control 100; rescue of ATP level, % at 7.49 µM; actives 0.78% (n = 330,000);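 active = mean ATP rescue above about 67%, or every replicate alone reaching that limit, limit read from the data, passing the limit was not always enough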;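 note: myotubes were challenged with 10 µM simvastatin during compound exposure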
# CDK5 p35 inh – blocks human CDK5/p35 kinase activity | Recombinant CDK5/p35, ADP-Glo luminescence, 60 min | Q00535+Q15078 | actives 0.01% (n = 330,000) | inhibition, % at 10 µM;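 active = highest replicate inhibition of at least 50% and at least 75% of replicates reaching 50%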;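 note: plate controls were DMSO neutral control for no effect and GW8510 at 10 µM for full effect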
# Rtt109 HAT inh – inhibitors of Candida albicans Rtt109/Vps75 histone acetyltransferase; Q5AAJ8; purified Rtt109/Vps75, ThioGlo CoA-SH fluorescence, 4 h; inhibition, % at 34.9 µM; actives 0.16% (n = 330,000); AID 540336;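 active = inhibition of at least 50% in every replicate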
# Yeast UUG start – modulators of yeast start codon fidelity, primary screen, whole organism, S. cerevisiae, single point, plate reader; S. cerevisiae UUG-firefly luciferase reporter, luminescence/redox ratio; activity score, % at 18.7 µM; actives 0.13% (n = 350,000);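 active means replicate mean at a twofold rise or more, about +100% in these data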;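 further: firefly luciferase made from a UUG start codon reports start codon fidelity; reporter light over untreated wells divided by growth signal over untreated wells; some hits fall short of that in this replicate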
# Cneo AK release – causes C. neoformans cell lysis; adenylate kinase release luminescence, 4 h; normalised: neutral wells 0, clomiphene wells 100; lysis activity, % at 15 µM; actives 0.2% (n = 360,000); AID 651654;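 active = mean lysis activity across replicates of at least 80%, whatever share of replicates individually reach that level; inactive = mean lysis activity below 80%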
#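 read-out = cell lysis signal | test system = log-phase Cryptococcus neoformans yeast cells | input = cells at 5 × 10^6 per mL | medium = fresh YPD growth medium | signal = luminescent adenylate kinase detection reagent | timing = 4 h at 37 °C static, read 1 h later | dosing = single dose | controls = Clomiphene as positive lysis control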
# Numbers without * were called inactive; · = not tested or not shown. In the library only some 1% were active in any assay of this set; here they are far more common.
# Sample of the layout (four entries):
# Labels used below – A = Statin myotox sup; B = CDK5 p35 inh; C = Rtt109 HAT inh; D = Yeast UUG start; E = Cneo AK release
> CCOC(=O)C(NC(=O)c1ccccc1)=C(C)C
  A: 0	B: 1	C: -6	D: -12	E: -3
> C[C@H](CO)N1C[C@H](C)[C@@H](CN(C)Cc2ccc3c(c2)OCO3)Oc2ccc(NC(=O)Nc3ccc(C(F)(F)F)cc3)cc2CC1=O
  A: -29	B: ·	C: ·	D: 13	E: 5
> C[C@H](CO)N1C[C@H](C)[C@@H](CN(C)CC2CC2)Oc2ccc(NS(=O)(=O)c3cccs3)cc2CC1=O
  A: -14	B: ·	C: ·	D: 21	E: 7
> CCCC#Cc1cnc2c(c1)C(=O)N([C@H](C)CO)C[C@H](C)[C@H](CN(C)S(=O)(=O)c1cccc(OC)c1)O2
  A: 23	B: ·	C: ·	D: ·	E: 2

# The whole of this part, from the start:
# Labels used below – A = Statin myotox sup; B = CDK5 p35 inh; C = Rtt109 HAT inh; D = Yeast UUG start; E = Cneo AK release
> CCOC(=O)C(NC(=O)c1ccccc1)=C(C)C
  A: 0	B: 1	C: -6	D: -12	E: -3
> C[C@H](CO)N1C[C@H](C)[C@@H](CN(C)Cc2ccc3c(c2)OCO3)Oc2ccc(NC(=O)Nc3ccc(C(F)(F)F)cc3)cc2CC1=O
  A: -29	B: ·	C: ·	D: 13	E: 5
> C[C@H](CO)N1C[C@H](C)[C@@H](CN(C)CC2CC2)Oc2ccc(NS(=O)(=O)c3cccs3)cc2CC1=O
  A: -14	B: ·	C: ·	D: 21	E: 7
> CCCC#Cc1cnc2c(c1)C(=O)N([C@H](C)CO)C[C@H](C)[C@H](CN(C)S(=O)(=O)c1cccc(OC)c1)O2
  A: 23	B: ·	C: ·	D: ·	E: 2
> O=C(Nc1ccccc1)c1ccccc1NC(=O)c1ccccc1[N+](=O)[O-]
  A: -5	B: 2	C: 50*	D: -1	E: 1
> CCN1/C(=C/C=C/c2sc3ccccc3[n+]2CC)Sc2ccccc21
  A: -163	B: 15	C: 66*	D: -4	E: -8
> CCN1/C(=C/C=C/C=C/C=C/c2sc3ccccc3[n+]2CC)Sc2ccccc21
  A: -75	B: 6	C: 1	D: -14	E: 0
> CN1c2ccc(-c3cccc(C#N)c3)cc2[C@H]2[C@H](CCN2C(=O)C2CCC2)[C@H]1CO
  A: 19	B: ·	C: ·	D: 8	E: 9
> O=c1[nH]c2ccccc2nc1/C=C/c1ccc(Cl)cc1
  A: 120*	B: -4	C: 2	D: 0	E: -5
> COc1ccc(OC)c(C(c2nnnn2Cc2ccccc2)N2CCN(C3CCCCC3)CC2)c1 (configuration not stated)
  A: 121*	B: 0	C: -5	D: -8	E: 5
> COc1ccc(Cn2nnnc2C(c2ccccc2OC)N2CCC(C(N)=O)CC2)cc1 (configuration not stated)
  A: 100*	B: -1	C: -8	D: -13	E: -1
> COc1cccc(S(=O)(=O)Nc2ccc3c(c2)OC[C@@H](C)NC[C@@H](C)[C@@H](OC)CN(C)C3=O)c1
  A: -9	B: ·	C: ·	D: -5	E: 2
> Cc1ccc(-c2cc(N)n(-c3ccc(C)cc3)n2)cc1
  A: 112*	B: -1	C: 0	D: -17	E: 0
> Cc1ccc(-c2cc(N)n(-c3ccc(F)cc3)n2)cc1
  A: ·	B: 0	C: 7	D: ·	E: ·
> CN1CCN(C(=O)C[C@H]2CC[C@@H]3[C@H](COC[C@@H](O)CN3Cc3cccc(F)c3)O2)CC1
  A: -13	B: ·	C: ·	D: 5	E: -2
> CCOc1ccc(C(F)(F)F)cc1NC(=O)COc1ccc(C(F)(F)F)cc1[N+](=O)[O-]
  A: -8	B: -1	C: 9	D: -10	E: 1
> CCOc1ccc(C(F)(F)F)cc1NC(C)=O
  A: 96*	B: 0	C: 0	D: -11	E: -2
> C[C@H](CO)N1C[C@H](C)[C@H](CN(C)Cc2ccc(C(=O)Nc3ccccc3N)cc2)Oc2ccc(N(C)C)cc2C1=O
  A: 83*	B: ·	C: ·	D: 11	E: -2
> C[C@H]1CN([C@@H](C)CO)C(=O)c2cc(NC(=O)Nc3cccc4ccccc34)ccc2O[C@H]1CN(C)Cc1ccc(C(=O)Nc2ccccc2N)cc1
  A: 202*	B: ·	C: ·	D: -4	E: 2
> C[C@H](CO)N1C[C@H](C)[C@@H](CN(C)Cc2ccc(C(=O)Nc3ccccc3N)cc2)Oc2ccc(NC(=O)Nc3ccc(C(F)(F)F)cc3)cc2C1=O
  A: 82*	B: ·	C: ·	D: -6	E: 0
> C[C@@H]1CN([C@@H](C)CO)C(=O)c2cccc(NC(=O)Nc3ccccc3)c2O[C@H]1CN(C)Cc1ccc(C(=O)Nc2ccccc2N)cc1
  A: 69*	B: ·	C: ·	D: -4	E: -1
> C[C@H](CO)N1C[C@H](C)[C@@H](CN(C)Cc2ccc(C(=O)Nc3ccccc3N)cc2)Oc2c(NC(=O)Nc3ccccc3)cccc2C1=O
  A: 35	B: ·	C: ·	D: 5	E: 1
> O=C([C@H]1[C@H](CO)[C@H]2Cn3c(ccc(-c4ccccc4F)c3=O)[C@@H]1N2C(=O)C1CC1)N1CCOCC1
  A: 14	B: ·	C: ·	D: ·	E: 1
> C[C@@H]1CN([C@H](C)CO)C(=O)c2cccc(NC(=O)Nc3cccc4ccccc34)c2O[C@@H]1CN(C)S(=O)(=O)c1cccs1
  A: -25	B: ·	C: ·	D: -13	E: 1
> C[C@@H]1CN([C@@H](C)CO)C(=O)c2cc(NC(=O)Nc3ccc(C(F)(F)F)cc3)ccc2O[C@@H]1CN(C)Cc1ccc(C(=O)Nc2ccccc2N)cc1
  A: 72*	B: ·	C: ·	D: -2	E: -2
> C[C@@H]1CN([C@@H](C)CO)C(=O)c2cc(NC(=O)Cn3cnnn3)ccc2O[C@@H]1CN(C)Cc1ccc(C(=O)Nc2ccccc2N)cc1
  A: 29	B: ·	C: ·	D: -10	E: 3
> C[C@@H]1CN([C@H](C)CO)C(=O)c2cc(NC(=O)Cn3cnnn3)ccc2O[C@@H]1CN(C)Cc1ccc(C(=O)Nc2ccccc2N)cc1
  A: 105*	B: ·	C: ·	D: -14	E: 4
> COc1ccc(S(=O)(=O)N(C)C[C@H]2Oc3cc(C4=CCCC4)ccc3S(=O)(=O)N([C@@H](C)CO)C[C@H]2C)cc1
  A: -23	B: ·	C: ·	D: 13	E: -4
> C=CCNC(=O)[C@@H]1[C@H]2C(=O)O[C@H](c3ccccc3)[C@H](c3ccccc3)N2[C@H](c2ccc(OCCO)cc2)[C@@]12C(=O)Nc1ccc(C#CCNC(N)=O)cc12
  A: ·	B: ·	C: ·	D: -2	E: -4
> COc1ccc(NC(=O)N(C)C[C@@H]2Oc3ccc(NC(=O)Nc4ccccc4)cc3C(=O)N([C@@H](C)CO)C[C@H]2C)cc1
  A: 9	B: ·	C: ·	D: 3	E: -3

# Later entries
smiles	Statin myotox sup	CDK5 p35 inh	Rtt109 HAT inh	Yeast UUG start	Cneo AK release
O=C(Nc1cccc2ccccc12)C12CC3CC(C1)CC(n1cnc([N+](=O)[O-])n1)(C3)C2	69*	0	0	-9	7
COC(=O)c1ccccc1NC(=O)C12CC3CC(C1)CC(n1cnc(Cl)n1)(C3)C2	1	5	20	-9	-1
COc1ccc(NC(=O)Nc2cccc3c2O[C@H](CN(C)C)[C@@H](C)CN([C@@H](C)CO)C3=O)cc1	-11	·	·	-10	-7
Nc1nonc1-n1nnc(C(=O)N/N=C/c2cccc(Cl)c2)c1-c1cccs1	72*	-1	17	-24	1
O=C(C[C@H]1C[C@H]2c3cc(NC(=O)C4CCC4)ccc3O[C@H]2[C@@H](CO)O1)NCc1cc(F)ccc1F	3	·	·	-3	62
C[C@@H]1CN([C@H](C)CO)C(=O)c2cc(NC(=O)Nc3cccc4ccccc34)ccc2O[C@@H]1CN(C)C(=O)Nc1ccccc1	13	·	·	27	103*
C[C@@H]1CN([C@@H](C)CO)C(=O)c2cc(NC(=O)Nc3cccc4ccccc34)ccc2O[C@@H]1CN(C)CC1CCCCC1	-11	·	·	11	4
C[C@H](CO)N1C[C@H](C)[C@@H](CN(C)CC2CCCCC2)Oc2ccc(NC(=O)Nc3cccc4ccccc34)cc2C1=O	96*	·	·	3	0
N#C[C@@H]1[C@H](c2ccc(C#CC3CCCC3)cc2)[C@@H](CO)N1S(=O)(=O)c1ccccc1	9	·	·	-17	8
O=C(CSC1=NC2(CCCCC2)N=C1c1ccccc1)Nc1ccc2c(c1)OCCO2	-3	1	170*	-18	-2
O=C(CSc1ncn(-c2ccccc2)n1)Nc1ccc2c(c1)OCCO2	101*	-1	5	-10	3
O=C(CSc1ncn(-c2ccccc2)n1)Nc1ccc2c(c1)OCO2	4	-1	1	2	0
